# Properties, as collected for the OPERA models

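These are experimental values that the OPERA curators gathered from public databases to train and test their QSAR models. One number stands for a compound and property, with no spread given. Method and conditions are not stated for these values. Where a salt, mixture or single isomer is drawn, the source does not say that exactly this form was tested. Unmarked limits or estimates from the upstream databases cannot be ruled out.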

The melting point is given in degrees Celsius. The boiling point refers to atmospheric pressure (760 mmHg), by the definition of the set. The octanol-water partition coefficient is given as log10; larger values mean a more lipophilic compound. Solubility in water is on a log10 molar scale (set defined at 25 °C). Vapor pressures (log10 mmHg) refer to near room temperature, 15 to 30 °C; higher is more volatile. fu is the fraction unbound in human plasma, from 0 to 1.

- Cc1ccc(Nc2cccc3c2C(=O)c2c(Nc4ccc(C)cc4)cccc2C3=O)cc1: mp 216.9 °C; log Kow 8.3; log solubility -8.145 (log10 mol/L)
- C=C(Br)C(=O)Nc1ccc(/N=N/c2c(N)ccc3cc(S(=O)(=O)[O-])cc(O)c23)c(S(=O)(=O)[O-])c1.[Na+].[Na+]: log Kow -3.56; log VP -8.254 (log10 mmHg)
- CCOc1ccccc1C(N)=NO [2-ethoxy-N-hydroxybenzamidine]: mp 145.2 °C; log solubility -1.793 (log10 mol/L)
- C=CC(=O)O[Si](C(C)C)(C(C)C)C(C)C [Tri-isopropyl silyl acrylate]: log solubility -4.944 (log10 mol/L); log VP -1.133 (log10 mmHg)
- CCCCCCCC(OC)OC [1,1-Dimethoxyoctane]: log solubility -2.918 (log10 mol/L); log VP -1.027 (log10 mmHg)
- CC(=O)OCC1=C(C(=O)O)N2C(=O)[C@@H](NC(=O)[C@H](N)c3ccccc3)[C@H]2SC1 [Cephaloglycin]: log Kow -0.3; log solubility -3.438 (log10 mol/L)
- CCCCC[C@@H]1CCC[C@@H]1O (relative stereo) [cis-2- Pentylcyclopentanol]: mp -22 °C; BP 222.3 °C; log Kow 3.68; log solubility -2.872 (log10 mol/L); log VP -1.435 (log10 mmHg)
- C=CCCCCCCCCCCCCCCCCCCCCCCCC [1-Hexacosene]: BP 403.2 °C; log VP -5.666 (log10 mmHg)
- CCCC1CCC(C2CCC(c3ccc(OC)c(F)c3F)CC2)CC1 (stereo not drawn): mp 87.7 °C; log solubility -7.202 (log10 mol/L); log VP -7.256 (log10 mmHg)
- CC(C)CCCC(C)CC=O (stereo not drawn) [3,7-Dimethyloctanal]: log solubility -3.806 (log10 mol/L); log VP -0.879 (log10 mmHg)
- CC(=O)c1ccc(Oc2ccc(Cl)cc2)cc1C(F)(F)F: log Kow 4.1; log solubility -5.288 (log10 mol/L)
- CO/N=C(/C(=O)OC)c1ccccc1CCl [Methyl (2E)-(2-(chloromethyl)phenyl)(methoxyimino)acetate]: mp 56.8 °C; log Kow 2.1; log solubility -2.815 (log10 mol/L); log VP -4.71 (log10 mmHg)
- CN(C)CCCNCCCN(C)C [N'-[3-(Dimethylamino)propyl]-N,N-dimethylpropane-1,3-diamine]: BP 229.9 °C; log VP -0.648 (log10 mmHg)
- CCC(=O)C(C)CO (stereo not drawn) [3-Pentanone, 1-hydroxy-2-methyl-]: mp -29 °C; log Kow 1.71; log VP -0.928 (log10 mmHg)
- Oc1c(-c2ccccc2)cccc1-c1ccccc1 [[1~1~,2~1~:2~3~,3~1~-Terphenyl]-2~2~-ol]: log Kow 3.9; log solubility -5.684 (log10 mol/L)
- CCCc1c2oc(C(=O)O)cc(=O)c2cc2c(=O)cc(C(=O)O)n(CC)c12 [Nedocromil]: log solubility -3.908 (log10 mol/L); plasma fu 0.2
- CC1(C2CCC3C4=CC=C5CC6(CCC5(C)C4CCC32C)OCCO6)OCCO1 (stereo not drawn): mp 187 °C; log Kow 6.7; log solubility -6.7 (log10 mol/L)
- CCOc1ccc(C[C@@H](CNCCN)NC(=O)OCc2ccccc2)cc1.Cl.Cl: mp 220 °C; log Kow -0.06
- O=[N+]([O-])c1ccc(Cl)cc1O [Phenol, 5-chloro-2-nitro-]: log solubility -2.637 (log10 mol/L); log VP -1.222 (log10 mmHg)
- CCCCCc1ccccc1 [Pentylbenzene]: log solubility -4.64 (log10 mol/L); log VP -0.358 (log10 mmHg)
- CCOc1ccc(NC(=O)c2cc3ccccc3c(N=Nc3cc(Cl)c(Cl)cc3Cl)c2O)cc1: log Kow 2.61; log solubility -8.058 (log10 mol/L)
- CN1CCCN=C1COC(=O)C(O)(c1ccccc1)C1CCCCC1 (stereo not drawn) [Oxyphencyclimine]: log Kow 3.7; log solubility -3.784 (log10 mol/L)

The first 4 entries again:

* Cc1ccc(Nc2cccc3c2C(=O)c2c(Nc4ccc(C)cc4)cccc2C3=O)cc1: mp 216.9 °C; log Kow 8.3; log solubility -8.145 (log10 mol/L)
* C=C(Br)C(=O)Nc1ccc(/N=N/c2c(N)ccc3cc(S(=O)(=O)[O-])cc(O)c23)c(S(=O)(=O)[O-])c1.[Na+].[Na+]: log Kow -3.56; log VP -8.254 (log10 mmHg)
* CCOc1ccccc1C(N)=NO [2-ethoxy-N-hydroxybenzamidine]: mp 145.2 °C; log solubility -1.793 (log10 mol/L)
* C=CC(=O)O[Si](C(C)C)(C(C)C)C(C)C [Tri-isopropyl silyl acrylate]: log solubility -4.944 (log10 mol/L); log VP -1.133 (log10 mmHg)

Data: OPERA 2.9 data sets, kmansouri/OPERA on GitHub.